The text below walks through data of patent US5391751A, “2,2-dimethylchromene derivatives, process for their preparation and pharmaceutical compositions in which they are present” (priority 1987, dated 1995).

In the data set the test system is mice. Format: in vivo. The note with it: oral administration.

`CC1(C)Oc2ccc(C#N)cc2[C@@H](N2CCCC2=O)[C@@H]1O` (relative stereo) [Product A, trans-6-cyano-4-(2-oxopyrrolidin-1-yl)-2,2-dimethyl-chroman-3-ol, reference compound] came in with an LD0 of 500 mg/kg.
